Screening data as filed in PubChem.
An excerpt weighted towards active compounds, which were near 1% of everything screened.
Cneo AK release – causes C. neoformans cell lysis. 360,000 tested, 0.2% active. adenylate kinase release luminescence, 4 h; normalised: neutral wells 0, clomiphene wells 100. AID 651654. lysis activity, % at 15 µM;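 active = mean lysis activity across replicates of at least 80%, whatever share of replicates individually reach that level; inactive = mean lysis activity below 80%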
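Material: C. neoformans cells; Schedule: 4 h static compound exposure, 37 °C, read 1 h post-reagent; Measured by: adenylate kinase release luminescence; Read-out: signal increase indicating cell lysis; Controls: Clomiphene as positive lysis control.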
Yeast UUG start – modulators of yeast start codon fidelity, primary screen, whole organism, S. cerevisiae, single point, plate reader | AID 602363, 2012 | S. cerevisiae UUG-firefly luciferase reporter, luminescence/redox ratio | activity score, % at 18.7 µM | hit rate 0.13% among 350,000;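 active = replicate mean at a twofold rise or more, about +100% in these data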;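 also: firefly luciferase made from a UUG start codon reports start codon fidelity; reporter light over untreated wells divided by growth signal over untreated wells; some hits fall short of that in this replicate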
CDK5 inh – inhibitors of human CDK5/p35 kinase. AID 488839. Recombinant CDK5/p35, ADP-Glo luminescence, 60 min. 330,000 tested, 0.01% active. Q00535+Q15078. inhibition, % at 10 µM;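 active = highest replicate inhibition of at least 50% and at least 75% of replicates reaching 50%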;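 note: plate controls were DMSO neutral control for no effect and GW8510 at 10 µM for full effect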
Rtt109 Vps75 – inhibitors of Candida albicans Rtt109/Vps75 histone acetyltransferase. inhibition, % at 34.9 µM. AID 540336. purified Rtt109/Vps75, ThioGlo CoA-SH fluorescence, 4 h. Q5AAJ8. 330,000 tested, 0.16% active;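 active = inhibition of at least 50% in every replicate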
Statin myotox sup – suppressors of simvastatin-induced myotoxicity in C2C12 myotubes | 330,000 tested, 0.78% active | ATP luminescence, 48 h; scaled: DMSO 0, geranylgeraniol control 100 | rescue of ATP level, % at 7.49 µM;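 active = mean ATP rescue above about 67%, or every replicate alone reaching that limit, limit read from the data, passing the limit was not always enough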;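 note: myotubes were challenged with 10 µM simvastatin during compound exposure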
An asterisk follows results filed as active; . = no result given; + = active, no number.

1. O=C(CSc1nnc(Cc2cccs2)n1C1CCCCC1)N1CCN(C(=O)c2ccco2)CC1
2. CC(Sc1nnc(Cc2cccs2)n1C1CCCCC1)C(N)=O (configuration not stated)
3. COc1ccc(OC)c2sc(N(CCCN(C)C)C(=O)CCS(=O)(=O)c3ccccc3)nc12
4. Cc1cccc2sc(N(CCCN(C)C)C(=O)CCc3ccccc3)nc12
5. COc1ccc(Cl)c2sc(N(CCN(C)C)C(=O)CCS(=O)(=O)c3ccc(C)cc3)nc12
6. Cc1cccc2sc(N(CCCN(C)C)C(=O)CN3C(=O)c4ccccc4C3=O)nc12
7. COC(=O)c1c(C)noc1-c1cc(C)on1
8. CNC(=O)c1ccc(-c2ccc(F)cc2)s1
9. CCOCCCN1CN(S(=O)(=O)c2ccc(Cl)cc2)c2nc3ccccc3nc21
10. Cc1ccccc1-c1cnc2c(c1)C(=O)N([C@@H](C)CO)C[C@@H](C)[C@@H](CN(C)Cc1ccncc1)O2

| Compound | 1 | 2 | 3 | 4 | 5 | 6 | 7 | 8 | 9 | 10 |
| --- | --- | --- | --- | --- | --- | --- | --- | --- | --- | --- |
| Cneo AK release | 4 | 1 | 1 | 5 | . | . | 5 | -7 | 0 | 0 |
| Yeast UUG start | -12 | -21 | 0 | 0 | . | . | -15 | -13 | -11 | -10 |
| CDK5 inh | -1 | 1 | 0 | -3 | 2 | -1 | -2 | 0 | 0 | . |
| Rtt109 Vps75 | 51* | 10 | 83* | 58* | 1 | -2 | -6 | -4 | -6 | . |
| Statin myotox sup | -16 | 9 | . | . | 12 | . | 102* | 69* | 133* | -13 |

11. COc1ccccc1-c1cc(C(F)(F)F)nc(S(=O)(=O)CCCC(=O)N2CCCCC2C)n1 (configuration not stated)
12. COc1ccccc1-c1cc(C(F)(F)F)nc(S(=O)(=O)CCCC(=O)NC(C)C)n1
13. COc1ccc(S(=O)(=O)Nc2ccc3c(c2)C(=O)N([C@@H](C)CO)C[C@H](C)[C@@H](CN(C)C(=O)C2CCCCC2)OCCCC[C@H](C)O3)cc1
14. CCCCN(CCNP(=O)(OCC)OCC)CP(=O)(OCC)OCC
15. O=C(CSCc1ccc(Cl)cc1)N/N=C/c1ccccc1
16. CC(C)CC#Cc1cnc2c(c1)C(=O)N([C@@H](C)CO)C[C@H](C)[C@H](CN(C)C(=O)c1ccc3c(c1)OCO3)O2
17. CC(C)CC#Cc1cnc2c(c1)C(=O)N([C@@H](C)CO)C[C@@H](C)[C@H](CN(C)C(=O)c1ccc3c(c1)OCO3)O2
18. C=CCN=C(NC#N)SCC(=O)c1cccc(OC)c1
19. C=CCN=C(NC#N)SCc1ccccc1
20. N#Cc1sc2nc3c(c(-c4ccco4)c2c1N)CCCC3

| Compound | 11 | 12 | 13 | 14 | 15 | 16 | 17 | 18 | 19 | 20 |
| --- | --- | --- | --- | --- | --- | --- | --- | --- | --- | --- |
| Cneo AK release | 0 | 4 | -2 | 1 | 10 | 85* | 0 | . | -1 | 1 |
| Yeast UUG start | -3 | -6 | 20 | -8 | -11 | 26 | 3 | . | -6 | -25 |
| CDK5 inh | 0 | -1 | . | -1 | 1 | . | . | 13 | -4 | 1 |
| Rtt109 Vps75 | 1 | -2 | . | 20 | 5 | . | . | -4 | 16 | -14 |
| Statin myotox sup | 84* | . | . | 72* | 114* | 21 | 78* | 112* | 40 | 98* |

21. NC(=O)c1sc2nc3c(c(-c4ccco4)c2c1N)CCCC3
22. COc1ccc(COn2c(=O)c(C)[n+]([O-])c3ccccc32)cc1OC
23. Cc1c(=O)n(OCc2ccccc2)c2ccccc2[n+]1[O-]
24. COc1ccc(NC(=O)Nc2ccc3c(c2)C(=O)N([C@@H](C)CO)C[C@H](C)[C@@H](CN(C)Cc2ccc(C(F)(F)F)cc2)O3)cc1
25. COc1cc(/C=C(/C(=O)c2cccs2)c2nc3ccccc3[nH]2)cc(OC)c1O
26. Cc1nnc(N2C(=O)C(O)=C(C(=O)c3ccco3)C2c2ccc(C(C)(C)C)cc2)s1 (configuration not stated)
27. Cc1cccc(-c2csc(N)c2C(=O)OC(C)C)c1
28. CN(C)CCN(C(=O)c1ccc2ccccc2c1)c1nc2c(F)cccc2s1
29. COc1ccccc1CNC(=O)C[C@H]1C[C@H]2c3cc(NC(=O)CC4CC4)ccc3O[C@H]2[C@@H](CO)O1
30. NC(=O)C1CCN(C(=O)c2cnn(-c3ccccc3)c2NC(=O)c2ccco2)CC1

| Compound | 21 | 22 | 23 | 24 | 25 | 26 | 27 | 28 | 29 | 30 |
| --- | --- | --- | --- | --- | --- | --- | --- | --- | --- | --- |
| Cneo AK release | -1 | 1 | 1 | -4 | . | -1 | 1 | 0 | 1 | -2 |
| Yeast UUG start | -14 | -1 | -17 | 7 | -5 | -29 | -14 | -16 | 0 | -4 |
| CDK5 inh | 6 | 1 | -1 | . | 0 | 0 | -1 | 1 | . | 1 |
| Rtt109 Vps75 | 0 | -7 | -7 | . | -4 | 15 | -5 | 1 | . | -6 |
| Statin myotox sup | -11 | 106* | 2 | 1 | 120* | 117* | 116* | 120* | 5 | 98* |

Rtt109 Vps75, hit marks shown above
entry	Compound	Yeast UUG start	CDK5 inh	Rtt109 Vps75
1	O=C(CSc1nnc(Cc2cccs2)n1C1CCCCC1)N1CCN(C(=O)c2ccco2)CC1	-12	-1	51*
3	COc1ccc(OC)c2sc(N(CCCN(C)C)C(=O)CCS(=O)(=O)c3ccccc3)nc12	0	0	83*
4	Cc1cccc2sc(N(CCCN(C)C)C(=O)CCc3ccccc3)nc12	0	-3	58*

More structures.
31. Cc1ccc(-n2ncc(C(=O)N3CCc4ccccc4C3)c2NC(=O)c2ccco2)cc1C
32. COc1ccc(CCNC(=O)c2cnn(-c3ccc(C)c(C)c3)c2NC(=O)c2ccco2)cc1OC
33. O=C(N[C@H]1CC[C@H](CCNC(=O)C2CCOCC2)O[C@@H]1CO)c1ccncc1
34. O=[N+]([O-])c1c(NCCCO)cc(Sc2nc3ccccc3s2)c2nonc12
35. CCC(=O)OCCNc1cc(Sc2nc3ccccc3s2)c2nonc2c1[N+](=O)[O-]
36. Cc1nnc(Sc2cc(NCCCO)c([N+](=O)[O-])c3nonc23)s1
37. CN(C)C(=O)C[C@H]1CC[C@@H](NC(=O)C2CC2)[C@H](CO)O1
38. COc1ccc(S(=O)(=O)O/N=C2\CCCc3ccccc32)cc1
39. O=S(=O)(O/N=C1\CCCc2ccccc21)c1ccccc1
40. CN1C(=O)c2cc(NC(=O)c3cccs3)ccc2OC[C@H]2O[C@@H](CC(=O)O)CC[C@H]21

| Compound | 31 | 32 | 33 | 34 | 35 | 36 | 37 | 38 | 39 | 40 |
| --- | --- | --- | --- | --- | --- | --- | --- | --- | --- | --- |
| Cneo AK release | . | 0 | -1 | 1 | -1 | . | -4 | 0 | -1 | -6 |
| Yeast UUG start | . | -12 | -9 | -5 | 3 | . | -22 | -9 | -5 | 4 |
| CDK5 inh | -3 | -1 | . | 0 | 0 | 2 | . | -2 | -2 | . |
| Rtt109 Vps75 | 0 | -7 | . | 16 | 11 | + | . | -1 | 6 | . |
| Statin myotox sup | 77* | -2 | -3 | -5 | 102* | . | -2 | 72* | . | 44 |

41. N#CC(c1ccc(Cl)cc1)c1ccc(Cl)nn1 (configuration not stated)
42. O=C(COc1cc(=O)n2c(n1)SCCC2)c1ccccc1
43. COc1cc(=O)n2c(n1)SCCC2
44. C[C@H](CO)N1C[C@H](C)[C@H](CN(C)C(=O)Nc2ccc(C(F)(F)F)cc2)OCCCC[C@H](C)Oc2ccc(NC(=O)c3ccccc3)cc2C1=O
45. C[C@@H]1CCCCO[C@@H](CN(C)C(=O)Nc2ccc(C(F)(F)F)cc2)[C@H](C)CN([C@@H](C)CO)C(=O)c2cc(NC(=O)c3ccccc3)ccc2O1
46. C[C@H]1CCCCO[C@H](CN(C)C(=O)Nc2ccc(C(F)(F)F)cc2)[C@@H](C)CN([C@@H](C)CO)C(=O)c2cc(NC(=O)c3ccccc3)ccc2O1
47. C[C@H](CO)N1C[C@H](C)[C@H](CN(C)C(=O)Cc2ccccc2)OCCCC[C@H](C)Oc2ccc(NC(=O)Nc3ccc(C(F)(F)F)cc3)cc2C1=O

| Compound | 41 | 42 | 43 | 44 | 45 | 46 | 47 |
| --- | --- | --- | --- | --- | --- | --- | --- |
| Cneo AK release | -1 | -4 | 1 | 1 | 0 | 0 | -3 |
| Yeast UUG start | -11 | -32 | -14 | -16 | -20 | -11 | -16 |
| CDK5 inh | 0 | 1 | -1 | . | . | . | . |
| Rtt109 Vps75 | -2 | -4 | 2 | . | . | . | . |
| Statin myotox sup | 106* | 114* | 11 | 112* | 76* | -33 | 97* |
